Assays:
[1] = molecular target: T1, Synaptic vesicular amine transporter (Rattus norvegicus, UniProt Q01827); experiment: Displacement of [3H]DTBZ from VMAT2 in Sprague-Dawley rat synaptic vesicle membranes after 30 mins by scintillation counting analysis; format: cell membranes, Membrane
[2] = molecular target: T1, Synaptic vesicular amine transporter; experiment: Inhibition of VMAT2-mediated [3H]DA uptake in rat striatal synaptic vesicles by liquid scintillation spectroscopic analysis

Chains of the proteins cited; added tags and fusions are not shown.
UniProt Q01827, whole entry: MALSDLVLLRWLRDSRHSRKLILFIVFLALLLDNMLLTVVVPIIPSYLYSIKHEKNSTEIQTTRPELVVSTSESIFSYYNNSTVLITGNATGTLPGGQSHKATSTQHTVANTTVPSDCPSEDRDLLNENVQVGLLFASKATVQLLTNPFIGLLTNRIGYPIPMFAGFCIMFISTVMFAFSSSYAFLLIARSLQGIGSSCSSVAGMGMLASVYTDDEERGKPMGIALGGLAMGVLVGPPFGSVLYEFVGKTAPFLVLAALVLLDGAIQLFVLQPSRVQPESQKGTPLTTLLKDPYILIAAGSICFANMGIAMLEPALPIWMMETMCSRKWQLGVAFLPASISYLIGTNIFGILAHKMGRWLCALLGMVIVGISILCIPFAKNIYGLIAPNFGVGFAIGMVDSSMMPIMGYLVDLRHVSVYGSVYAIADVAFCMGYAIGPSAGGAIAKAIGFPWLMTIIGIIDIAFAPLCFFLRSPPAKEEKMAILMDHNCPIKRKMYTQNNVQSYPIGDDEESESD

Ki [1]: 4.06 µM
Ki [2]: 0.2 µM
SMILES: OC[C@H](O)CN1[C@H](CCc2cc(F)cc(F)c2)CC[C@@H]1CCc1cc(F)cc(F)c1
